The text below walks through data of ChEMBL document CHEMBL1129178, “Thiol inhibitors of endothelin-converting enzyme” (Bioorg Med Chem Lett, 1996).

As a reminder, the IC50 is the concentration that inhibits the measured activity by half.

This assay deals with T1, Endothelin-converting enzyme 1 (Rattus norvegicus, UniProt P42893).
T1 sequence (P42893 whole entry): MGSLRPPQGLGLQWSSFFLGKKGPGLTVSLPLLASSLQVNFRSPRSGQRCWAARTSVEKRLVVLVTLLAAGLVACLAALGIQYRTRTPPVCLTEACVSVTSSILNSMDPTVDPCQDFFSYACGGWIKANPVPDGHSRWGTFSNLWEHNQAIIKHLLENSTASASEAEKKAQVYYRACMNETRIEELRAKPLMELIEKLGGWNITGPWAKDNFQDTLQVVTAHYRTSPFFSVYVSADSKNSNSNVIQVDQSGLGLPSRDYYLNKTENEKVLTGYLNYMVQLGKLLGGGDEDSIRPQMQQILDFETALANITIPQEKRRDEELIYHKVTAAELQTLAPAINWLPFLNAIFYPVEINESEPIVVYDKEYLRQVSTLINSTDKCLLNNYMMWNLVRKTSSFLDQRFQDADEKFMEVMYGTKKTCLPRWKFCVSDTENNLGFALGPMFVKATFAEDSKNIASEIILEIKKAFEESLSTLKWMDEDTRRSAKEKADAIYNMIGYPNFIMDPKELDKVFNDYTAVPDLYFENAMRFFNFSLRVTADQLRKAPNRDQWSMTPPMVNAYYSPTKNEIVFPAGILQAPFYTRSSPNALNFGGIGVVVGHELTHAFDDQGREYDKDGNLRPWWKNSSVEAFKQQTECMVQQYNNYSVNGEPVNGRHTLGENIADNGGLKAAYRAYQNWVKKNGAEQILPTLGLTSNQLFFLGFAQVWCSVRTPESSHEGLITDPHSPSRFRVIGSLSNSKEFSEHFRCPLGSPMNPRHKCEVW
As to the kind of experiment: In vitro inhibition of Endothelin-converting enzyme 1 from rat lungs.

As for `O=C(N[C@@H](Cc1c[nH]c2ccccc12)C(=O)O)C(CS)Cc1cccc(Br)c1` (stereo partly specified), the IC50 was found to be 20 nM.
